Assay results: patent publication US7696246B2 (Ligand Pharmaceuticals Incorporated, priority 1999, dated 2010)

By UniProt entry, the sequences of proteins in these tests, tags left out. Where a name states a change or a piece, a line headed by the entry shows the natural chain unless it says otherwise.
UniProt P10275: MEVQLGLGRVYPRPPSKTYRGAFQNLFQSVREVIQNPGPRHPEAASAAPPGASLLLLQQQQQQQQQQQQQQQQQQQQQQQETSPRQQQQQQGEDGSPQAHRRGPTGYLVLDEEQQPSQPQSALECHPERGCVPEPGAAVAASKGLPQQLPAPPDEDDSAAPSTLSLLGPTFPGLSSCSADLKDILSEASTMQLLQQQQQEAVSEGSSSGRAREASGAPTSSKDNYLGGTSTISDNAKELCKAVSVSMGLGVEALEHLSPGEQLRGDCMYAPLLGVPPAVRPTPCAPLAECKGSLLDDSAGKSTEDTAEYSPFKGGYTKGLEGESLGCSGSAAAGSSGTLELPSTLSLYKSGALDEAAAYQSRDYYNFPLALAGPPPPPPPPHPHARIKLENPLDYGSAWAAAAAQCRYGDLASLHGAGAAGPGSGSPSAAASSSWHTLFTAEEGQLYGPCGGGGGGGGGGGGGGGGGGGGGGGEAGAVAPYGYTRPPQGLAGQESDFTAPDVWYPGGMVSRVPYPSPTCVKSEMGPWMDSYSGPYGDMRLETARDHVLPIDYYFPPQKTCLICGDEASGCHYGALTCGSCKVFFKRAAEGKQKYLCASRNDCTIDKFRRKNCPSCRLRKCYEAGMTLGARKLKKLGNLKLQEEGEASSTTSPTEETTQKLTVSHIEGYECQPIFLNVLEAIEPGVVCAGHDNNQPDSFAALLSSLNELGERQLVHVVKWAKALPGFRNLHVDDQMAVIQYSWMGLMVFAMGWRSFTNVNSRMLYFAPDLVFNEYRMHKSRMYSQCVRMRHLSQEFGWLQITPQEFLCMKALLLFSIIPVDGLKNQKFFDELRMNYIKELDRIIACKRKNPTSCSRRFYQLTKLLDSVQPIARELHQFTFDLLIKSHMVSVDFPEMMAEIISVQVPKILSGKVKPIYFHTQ

target: T1, human AR (Homo sapiens, UniProt P10275); test: AR whole cell competitive binding assay (COS-1 cells, 3H-DHT); details: not given

Going from `CCC(C)c1cc2c(C(F)(F)F)cc(=O)[nH]c2cc1N` (stereo not drawn) [Compound 581, 7-Amino-6-sec-butyl-4-trifluoromethyl-2(1H)-quinolinone] to `O=c1cc(C(F)(F)F)c2ccc(NCC(F)(F)F)cc2[nH]1` [Compound 523, 7-(N-2,2,2-Trifluoroethyl)amino-4-trifluoromethyl-2(1H)-quinolinone], the Ki falls from 0.024 µM to 0.016 µM (1.5-fold). The second binds more tightly here.

`Cc1cc(=O)[nH]c2ccc(N(CC(C)C)CC(F)(F)F)cc12` [Compound 381, 6-(N-Isobutyl-N-2,2,2-trifluoroethyl)amino-4-methyl-2(1H)-quinolinone] was tested, and the Ki was 0.0078 µM.

target: T1, human AR; test: Co-transfection assay, AR agonist activity (CV-1 cells, MTV-LUC reporter); details: not given

First: CCCNc1ccc2c(C(F)(F)F)cc(=O)[nH]c2c1 [Compound 513, 7-Propylamino-4-trifluoromethyl-2(1H)-quinolinone]
Second: O=c1cc(C(F)(F)F)c2ccc(NCC(F)(F)F)cc2[nH]1 [Compound 523, 7-(N-2,2,2-Trifluoroethyl)amino-4-trifluoromethyl-2(1H)-quinolinone]
The EC50 of the first is higher: over 10 µM for the first, 1 µM for the second. The second is the more potent here.

Going from `Cc1cc(=O)[nH]c2ccc(N(CC(F)(F)F)CC(F)(F)F)cc12` [Compound 377, 6-(bis-2,2,2-Trifluoroethyl)amino-4-methyl-2(1H)-quinolinone] to `Cc1cc(=O)[nH]c2ccc(N(CC(C)C)CC(F)(F)F)cc12` [Compound 381, 6-(N-Isobutyl-N-2,2,2-trifluoroethyl)amino-4-methyl-2(1H)-quinolinone], the EC50 rises from 0.00045 µM to 0.0018 µM (4-fold). The first is the more potent here.

`CC(C)Nc1ccc2c(C(F)(F)F)cc(=O)[nH]c2c1` [Compound 514, 7-Isopropylamino-4-trifluoromethyl-2(1H)-quinolinone] and `C=CC(C)(C)Nc1ccc2c(C(F)(F)F)cc(=O)[nH]c2c1` [Compound 559, 7-(1,1-Dimethylallyl)amino-4-trifluoromethyl-2(1H)-quinolinone] cannot be ordered by EC50: over 10 µM for the first, over 10 µM for the second.

First: CCN(c1ccc2[nH]c(=O)cc(C(F)(F)F)c2c1)C(C)C [Compound 239, 6-(N-Ethyl-N-isopropyl)amino-4-trifluoromethyl-2(1H)-quinolinone]
Second: O=c1cc(C(F)(F)F)c2ccc(NCC(F)(F)C(F)(F)F)cc2[nH]1 [Compound 520, 7-(2,2,3,3,3-Pentafluoropropyl)amino-4-trifluoromethyl-2(1H)-quinolinone]
The EC50 of the first is lower: 0.002 µM for the first, over 10 µM for the second. The first is the more potent here.

same assay, conditions: read-out: AR Agonist CV-1 Cells Potency

`CCCCN(CCCC)c1ccc2[nH]c(=O)cc(C(F)(F)F)c2c1` [Compound 220, 6-Dibutylamino-4-trifluoromethyl-2(1H)-quinolinone] gave an EC50 of 1.28 µM.

target: T1, human AR; test: Co-transfection assay, AR antagonist activity (CV-1 cells, in presence of DHT); details: not given

`CCCNc1ccc2c(C(F)(F)F)cc(=O)[nH]c2c1` [Compound 513, 7-Propylamino-4-trifluoromethyl-2(1H)-quinolinone] and `CCCNc1ccc2[nH]c(=O)cc(C(F)(F)F)c2c1` [Compound 204, 6-Propylamino-4-trifluoromethyl-2(1H)-quinolinone] are within 1.5-fold of each other in IC50: 0.026 µM for the first, 0.027 µM for the second.

`Cc1cc(=O)[nH]c2ccc(N(CC(F)(F)F)CC(F)(F)F)cc12` [Compound 377, 6-(bis-2,2,2-Trifluoroethyl)amino-4-methyl-2(1H)-quinolinone] and `Cc1cc(=O)[nH]c2ccc(N(CC(C)C)CC(F)(F)F)cc12` [Compound 381, 6-(N-Isobutyl-N-2,2,2-trifluoroethyl)amino-4-methyl-2(1H)-quinolinone] cannot be ordered by IC50: over 10 µM for the first, over 10 µM for the second.

Going from `CCC(C)c1cc2c(C(F)(F)F)cc(=O)[nH]c2cc1N` (stereo not drawn) [Compound 581, 7-Amino-6-sec-butyl-4-trifluoromethyl-2(1H)-quinolinone] to `CCN(c1ccc2[nH]c(=O)cc(C(F)(F)F)c2c1)C(C)C` [Compound 239, 6-(N-Ethyl-N-isopropyl)amino-4-trifluoromethyl-2(1H)-quinolinone], the IC50 rises from 5 µM to over 10 µM. The first is the more potent here.

First: O=c1cc(C(F)(F)F)c2ccc(NCC(F)(F)F)cc2[nH]1 [Compound 523, 7-(N-2,2,2-Trifluoroethyl)amino-4-trifluoromethyl-2(1H)-quinolinone]
Second: CC(C)Nc1ccc2c(C(F)(F)F)cc(=O)[nH]c2c1 [Compound 514, 7-Isopropylamino-4-trifluoromethyl-2(1H)-quinolinone]
The IC50 of the first is 2.3-fold lower: 0.024 µM for the first, 0.055 µM for the second. The first is the more potent here.

In the case of `CCCCN(CCCC)c1ccc2[nH]c(=O)cc(C(F)(F)F)c2c1` [Compound 220, 6-Dibutylamino-4-trifluoromethyl-2(1H)-quinolinone], the IC50 is reported as 0.029 µM.
